Data as given in patent publication US12552834 (MIT, dated 2026).

The chains behind the UniProt entries cited, without tags or fusion partners. A line that says so, or that is headed by a name, gives the form on record, which may keep a tag or linker.
UniProt Q03173, other isoform, or with tags, fused parts or gaps limits assumed: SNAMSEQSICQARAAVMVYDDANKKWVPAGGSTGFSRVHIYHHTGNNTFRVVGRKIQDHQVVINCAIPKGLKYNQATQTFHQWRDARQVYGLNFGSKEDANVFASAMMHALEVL

Biological target: T1, ENAH EVH1 domain (monomeric, wild type) (human, UniProt Q03173 1-111 (mouse entry))
T1 construct: ENAH residue numbers in the text count from the Met at position 25 of this entry; also called ENAH EVH1 WT; Mena EVH1 WT
Assay: BLI, steady state; SUMO-peptide immobilised, EVH1 monomer in solution

B1: ABI1 b peptide (peptide)
peptide: MAGGLNDIFEAQKIEWHEDTGGSSHHHHHHGSGSGSDSEVNQEAKPEVKPEVKPETHINLKVSDGSSEIFFKIKKTTPLRRLMEAFAKRQGKEMDSLTFLYDGIEIQADQTPEDLDMEDNDIIEAHREQIGGSGSGFDDFPPPPPPPPVDYEDEEAAV
modifications: biotinylated (BAP tag)
notes: ABI1 truncation, tested as a SUMO fusion
For B1, the Kd was 3.93 µM.
